{"source": "paper PMC10072319", "about": "(Bioorganic & medicinal chemistry letters, 2023)", "system": "T. b. brucei Lister 427", "assay_type": "cell-based, Trypanosoma brucei brucei", "details": "first pass screen at 4 μM"}
{"smiles": "COc1ccc(/C=C/C(=O)CC(=O)/C=C/c2ccc(OC)cc2OC)c(OC)c1", "note": "[Compound 9]", "values": [{"measurement": "activity against T. b. brucei, in words", "value": "inactive"}]}
